{"sequences": {"note": "By UniProt entry, the sequences of proteins in these tests, tags left out. Residues count along the entry.", "UniProt A0A0H2ZFZ5, 23-802 R648C": "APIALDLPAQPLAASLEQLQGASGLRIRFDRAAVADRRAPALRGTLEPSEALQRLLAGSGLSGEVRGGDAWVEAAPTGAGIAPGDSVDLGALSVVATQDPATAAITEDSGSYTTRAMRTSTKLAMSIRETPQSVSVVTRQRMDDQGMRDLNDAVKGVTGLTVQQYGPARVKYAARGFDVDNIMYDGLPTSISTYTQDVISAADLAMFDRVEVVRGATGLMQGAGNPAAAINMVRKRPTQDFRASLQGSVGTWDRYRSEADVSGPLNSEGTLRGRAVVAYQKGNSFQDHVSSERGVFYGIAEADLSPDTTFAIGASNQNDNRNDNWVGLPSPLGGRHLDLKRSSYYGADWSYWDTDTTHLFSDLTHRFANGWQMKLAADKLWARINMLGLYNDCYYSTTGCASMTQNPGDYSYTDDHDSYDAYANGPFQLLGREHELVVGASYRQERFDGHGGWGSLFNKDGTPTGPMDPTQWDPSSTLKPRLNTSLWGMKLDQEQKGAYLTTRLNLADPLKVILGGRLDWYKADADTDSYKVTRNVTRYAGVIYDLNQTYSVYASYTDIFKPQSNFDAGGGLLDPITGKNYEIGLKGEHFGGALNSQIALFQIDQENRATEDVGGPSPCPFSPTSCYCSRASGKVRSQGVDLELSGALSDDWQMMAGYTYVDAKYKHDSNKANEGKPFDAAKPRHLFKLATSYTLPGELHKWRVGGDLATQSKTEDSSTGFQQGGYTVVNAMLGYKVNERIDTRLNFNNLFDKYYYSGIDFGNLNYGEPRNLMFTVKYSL"}, "source": "paper PMC9973354", "about": "“Pseudomonas aeruginosa FpvB Is a High-Affinity Transporter for Xenosiderophores Ferrichrome and Ferrioxamine B” (mBio, 2022)", "target": "T1, FpvB R648C (Pseudomonas aeruginosa, UniProt A0A0H2ZFZ5, R648C)", "T1 sequence (A0A0H2ZFZ5 23-802 R648C)": "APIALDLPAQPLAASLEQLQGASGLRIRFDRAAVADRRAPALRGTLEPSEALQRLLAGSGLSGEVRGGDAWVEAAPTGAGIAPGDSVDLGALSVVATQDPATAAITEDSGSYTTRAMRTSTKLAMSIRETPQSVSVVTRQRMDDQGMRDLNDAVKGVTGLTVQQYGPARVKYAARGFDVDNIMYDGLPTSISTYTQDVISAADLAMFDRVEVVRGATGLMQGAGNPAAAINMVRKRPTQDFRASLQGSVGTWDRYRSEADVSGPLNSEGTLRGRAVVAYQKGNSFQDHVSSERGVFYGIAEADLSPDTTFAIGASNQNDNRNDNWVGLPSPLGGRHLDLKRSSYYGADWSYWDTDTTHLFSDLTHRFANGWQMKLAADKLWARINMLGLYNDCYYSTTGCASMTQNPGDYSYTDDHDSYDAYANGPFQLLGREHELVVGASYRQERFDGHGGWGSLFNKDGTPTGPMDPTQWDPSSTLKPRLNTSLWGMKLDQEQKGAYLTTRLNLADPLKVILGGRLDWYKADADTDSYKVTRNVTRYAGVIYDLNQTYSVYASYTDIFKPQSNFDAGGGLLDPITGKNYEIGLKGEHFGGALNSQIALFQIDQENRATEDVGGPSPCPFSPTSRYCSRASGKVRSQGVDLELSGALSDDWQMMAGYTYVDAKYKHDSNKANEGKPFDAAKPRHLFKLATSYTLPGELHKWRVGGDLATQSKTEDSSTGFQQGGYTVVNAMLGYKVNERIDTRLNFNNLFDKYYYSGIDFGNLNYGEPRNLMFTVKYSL", "test": "Whole-cell fluorescence quenching, FpvB R648C in ΔfpvA ΔfpvB", "assay_type": "binding", "details": "greater than ferrichrome", "from_the_text": "To determine the affinity of the siderophores for FpvA and FpvB, we adapted the method from Chakravorty et al. to generate a whole-cell sensor where fluorescence quenching serves as an indicator of ligand interaction ([31]). Siderophore binding triggers conformational changes at the extracellular loops of the TBDT (Fig. 3A). Cys substitutions were introduced at the loops and labeled with a fluorescent maleimide dye. When a ligand binds the transporter, the loops fold inward toward the lumen of the barrel, and changes in the chemical environment surrounding the fluorophore lead to quenching ([31], [32]). Fluorescence recovery occurs once the siderophore is taken up and the loop returns to its original conformation.\nCells were cultured overnight in LB with carbenicillin (200 μg/mL) at 37°C with shaking at 200 rpm. […] For fluorescence recovery assays, cells were incubated with 1× PBS plus 0.4% glucose at 37°C with shaking at 200 rpm. […] Cells were spun down and washed 3× with 1× PBS and resuspended in 1× PBS for quenching assays and 1× PBS plus 0.4% glucose for fluorescence recovery assays.\nFor fluorescence quenching and recovery assays, cells were diluted to an OD600 of 0.1 for both types of assays, and 148 μL was added into wells of a 96-well black plate (Corning). Fluorescence was recorded for 5 min at 1-min intervals at 37°C (BioTek Neo; excitation, 494 nm; emission, 520 nm). […]", "data": [{"smiles": "CC(=O)N(O)CCCCCNC(=O)CCC(=O)N(O)CCCCCNC(=O)CCC(=O)N(O)CCCCCN", "note": "[ferrioxamine B]", "values": [{"measurement": "Kd for FpvB relative to ferrichrome", "value": "approximately 10 fold"}]}]}
